Values quoted from earlier work, collected in US20100004234A1, “SPECIFIC KINASE INHIBITORS” (Kosan Biosciences Incorporated, priority 2004, published 2010).

Target: T1, TAK1 MEKK enzyme (Homo sapiens, UniProt O43318)
T1 sequence (O43318 1-606): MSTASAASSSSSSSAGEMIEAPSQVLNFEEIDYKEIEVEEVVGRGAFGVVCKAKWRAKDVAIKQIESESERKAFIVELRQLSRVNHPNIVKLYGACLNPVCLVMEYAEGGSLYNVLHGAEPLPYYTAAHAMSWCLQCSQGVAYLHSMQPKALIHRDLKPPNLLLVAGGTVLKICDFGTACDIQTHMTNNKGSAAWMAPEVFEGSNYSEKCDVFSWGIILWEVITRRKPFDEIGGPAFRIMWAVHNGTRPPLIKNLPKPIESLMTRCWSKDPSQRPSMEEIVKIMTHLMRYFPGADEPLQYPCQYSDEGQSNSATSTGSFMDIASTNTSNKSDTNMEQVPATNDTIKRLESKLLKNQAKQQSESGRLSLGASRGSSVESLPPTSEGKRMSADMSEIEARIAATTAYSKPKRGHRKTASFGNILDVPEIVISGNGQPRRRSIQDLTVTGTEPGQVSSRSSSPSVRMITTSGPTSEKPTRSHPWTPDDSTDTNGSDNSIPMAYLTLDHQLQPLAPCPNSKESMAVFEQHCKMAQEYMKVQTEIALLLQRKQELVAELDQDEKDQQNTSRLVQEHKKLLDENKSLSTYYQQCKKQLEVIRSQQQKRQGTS
T1 sequence (Q15750 1-504 partner): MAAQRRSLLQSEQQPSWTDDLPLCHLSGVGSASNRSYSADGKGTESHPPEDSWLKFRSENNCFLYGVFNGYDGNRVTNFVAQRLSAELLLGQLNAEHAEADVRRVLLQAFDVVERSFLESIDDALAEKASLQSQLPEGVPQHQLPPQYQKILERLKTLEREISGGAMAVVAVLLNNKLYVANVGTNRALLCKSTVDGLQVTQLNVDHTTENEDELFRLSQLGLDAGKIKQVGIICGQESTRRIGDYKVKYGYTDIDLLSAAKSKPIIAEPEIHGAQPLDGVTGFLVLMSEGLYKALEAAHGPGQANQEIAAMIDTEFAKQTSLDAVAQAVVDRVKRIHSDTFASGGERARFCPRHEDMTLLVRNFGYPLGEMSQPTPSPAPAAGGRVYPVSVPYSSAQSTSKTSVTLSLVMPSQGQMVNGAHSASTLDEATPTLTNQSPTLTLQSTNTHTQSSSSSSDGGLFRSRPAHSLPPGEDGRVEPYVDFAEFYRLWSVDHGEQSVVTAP
Details: cited from earlier work

COc1cc(O)c2c(c1)/C=C/C[C@H](O)[C@H](O)C(=O)/C=C\C[C@H](C)OC2=O [(5Z)-7-oxozeaneol]
IC50: 8 nM
